The target in data set [1] is Nav1.8 (Homo sapiens, UniProt Q9Y5Y9).
Data set [2] is described as follows: Liver microsome metabolic stability (rat). The settings on record: Rat liver microsome 0.5 mg/mL, test compound 1 µM, NADPH 1 mM.
A short description of data set [3]: Liver microsome metabolic stability (human). The settings on record: Human liver microsome 0.5 mg/mL, test compound 1 µM, NADPH 1 mM.
A short description of data set [4]: Liver microsome metabolic stability (monkey). To be noted: Monkey liver microsome 0.5 mg/mL, test compound 1 µM, NADPH 1 mM.
The nature of data set [5]: Pharmacokinetics in rats after administration via gavage. The settings on record: male SD rats, 0.5 mg/mL at 10 mL/kg; for Half-life t1/2 / Peak time tmax / Residence time MRTinf: plasma.

By UniProt entry, the sequences of proteins in these tests, tags left out.
UniProt Q9Y5Y9, whole entry: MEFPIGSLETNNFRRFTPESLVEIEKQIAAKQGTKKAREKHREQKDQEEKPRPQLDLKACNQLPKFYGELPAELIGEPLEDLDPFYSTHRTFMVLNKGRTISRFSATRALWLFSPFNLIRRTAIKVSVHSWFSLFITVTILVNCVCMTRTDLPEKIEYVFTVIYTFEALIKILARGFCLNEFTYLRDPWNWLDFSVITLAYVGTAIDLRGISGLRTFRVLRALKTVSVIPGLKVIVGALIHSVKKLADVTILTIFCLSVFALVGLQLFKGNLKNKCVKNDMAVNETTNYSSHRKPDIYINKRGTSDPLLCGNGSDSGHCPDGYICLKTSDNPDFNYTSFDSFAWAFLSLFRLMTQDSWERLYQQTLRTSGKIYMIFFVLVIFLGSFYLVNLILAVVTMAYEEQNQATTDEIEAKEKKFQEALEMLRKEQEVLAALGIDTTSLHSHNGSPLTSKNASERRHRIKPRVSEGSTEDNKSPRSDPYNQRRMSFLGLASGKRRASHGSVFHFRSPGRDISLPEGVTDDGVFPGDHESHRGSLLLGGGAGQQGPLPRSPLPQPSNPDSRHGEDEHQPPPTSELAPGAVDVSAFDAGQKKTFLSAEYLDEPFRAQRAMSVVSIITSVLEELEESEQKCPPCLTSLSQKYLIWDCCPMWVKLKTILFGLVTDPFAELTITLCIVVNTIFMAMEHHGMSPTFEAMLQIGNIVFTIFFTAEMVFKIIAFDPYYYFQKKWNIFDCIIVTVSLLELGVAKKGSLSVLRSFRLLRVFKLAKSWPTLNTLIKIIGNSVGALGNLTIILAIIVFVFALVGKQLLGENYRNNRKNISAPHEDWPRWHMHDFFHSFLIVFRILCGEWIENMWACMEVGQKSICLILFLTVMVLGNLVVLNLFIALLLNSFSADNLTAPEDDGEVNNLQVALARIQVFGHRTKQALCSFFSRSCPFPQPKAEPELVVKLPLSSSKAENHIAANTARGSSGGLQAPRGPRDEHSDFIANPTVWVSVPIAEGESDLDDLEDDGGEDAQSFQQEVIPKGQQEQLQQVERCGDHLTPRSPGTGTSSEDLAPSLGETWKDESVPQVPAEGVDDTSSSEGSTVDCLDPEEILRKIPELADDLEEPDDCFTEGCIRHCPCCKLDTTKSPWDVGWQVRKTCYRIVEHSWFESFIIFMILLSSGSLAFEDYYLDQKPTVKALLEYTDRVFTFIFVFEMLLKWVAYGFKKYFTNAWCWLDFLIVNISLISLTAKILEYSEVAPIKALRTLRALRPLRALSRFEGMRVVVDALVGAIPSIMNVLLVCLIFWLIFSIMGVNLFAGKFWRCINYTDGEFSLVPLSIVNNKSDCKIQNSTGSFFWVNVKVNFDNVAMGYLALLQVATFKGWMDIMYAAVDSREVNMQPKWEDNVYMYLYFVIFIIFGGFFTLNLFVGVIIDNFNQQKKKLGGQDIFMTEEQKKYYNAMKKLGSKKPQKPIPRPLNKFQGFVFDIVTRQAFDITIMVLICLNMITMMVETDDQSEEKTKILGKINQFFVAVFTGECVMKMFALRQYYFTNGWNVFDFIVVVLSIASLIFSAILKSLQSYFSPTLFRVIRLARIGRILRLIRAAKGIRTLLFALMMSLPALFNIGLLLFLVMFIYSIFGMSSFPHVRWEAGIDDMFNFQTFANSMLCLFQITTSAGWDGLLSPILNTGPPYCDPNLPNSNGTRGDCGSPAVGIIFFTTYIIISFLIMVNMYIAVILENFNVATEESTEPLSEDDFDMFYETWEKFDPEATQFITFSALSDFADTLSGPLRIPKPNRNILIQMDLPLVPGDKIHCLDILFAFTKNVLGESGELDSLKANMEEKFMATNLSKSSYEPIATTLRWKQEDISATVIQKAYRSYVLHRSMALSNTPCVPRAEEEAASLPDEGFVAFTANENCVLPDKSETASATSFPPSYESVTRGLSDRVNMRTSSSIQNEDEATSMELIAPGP

Each structure is given as a SMILES string.

In the case of `C[C@H]1[C@@H](c2ccc(F)c(F)c2OCF)[C@H](C(=O)Nc2ccc(C(N)=O)c(C(N)=O)c2)O[C@@]1(C)C(F)(F)F`, the IC50 in data set [1] was less than 0.5 nM. The “Half-life t1/2” value in data set [2] is greater than 2.42 h. Moreover, the “Half-life t1/2” value in data set [3] is greater than 2.42 h. For the same compound, the “Half-life t1/2” value in data set [4] is greater than 2.42 h. Also, in data set [5], the “Peak plasma concentration Cmax” value was determined as 213 ng/mL, the “Plasma exposure amount AUC” value was found to be 1986 ng·h/mL, the “Half-life t1/2” value is listed as 5.16 h and the Peak time tmax amounted to 3.33 h. In data set [5], the “Residence time MRTinf” value is 7.66 h.
As for `COc1c([C@H]2[C@H](C(=O)Nc3ccc(C(N)=O)c(C(N)=O)c3)O[C@@](C)(C(F)(F)F)[C@H]2C)ccc(F)c1F`, the “Half-life t1/2” value in data set [2] was found to be 2.03 h. In addition, the “Half-life t1/2” value in data set [3] worked out at 1.02 h. Further, the “Half-life t1/2” value in data set [4] was found to be 0.76 h. Also, in data set [5], the “Peak plasma concentration Cmax” value is on record as 111 ng/mL, the “Plasma exposure amount AUC” value worked out at 431 ng·h/mL, the “Half-life t1/2” value is on record as 3.4 h and the Peak time tmax came out at 0.5 h. The “Residence time MRTinf” value in data set [5] is 4.82 h.
With `[2H]C([2H])([2H])Oc1c([C@H]2[C@H](C(=O)Nc3ccc(C(N)=O)c(C(N)=O)c3)O[C@@](C)(C(F)(F)F)[C@H]2C)ccc(F)c1F`, the IC50 in data set [1] is less than 0.5 nM. Further, the “Half-life t1/2” value in data set [2] is greater than 2.42 h. Also, the “Half-life t1/2” value in data set [3] was greater than 2.42 h. In addition, the “Half-life t1/2” value in data set [4] was greater than 2.42 h. Also, in data set [5], the “Peak plasma concentration Cmax” value amounted to 136 ng/mL, the “Plasma exposure amount AUC” value is 1080 ng·h/mL, the “Half-life t1/2” value is 3.37 h and the Peak time tmax turned out to be 1.0 h. Besides, the “Residence time MRTinf” value in data set [5] was found to be 5.78 h.
For the compound `C[C@H]1[C@@H](c2ccc(F)c(F)c2OC(F)F)[C@H](C(=O)Nc2ccc(C(N)=O)c(C(N)=O)c2)O[C@@]1(C)C(F)(F)F`, the IC50 in data set [1] was less than 0.5 nM. For the same compound, the “Half-life t1/2” value in data set [2] is greater than 2.42 h. Further, the “Half-life t1/2” value in data set [3] was greater than 2.42 h. Besides, the “Half-life t1/2” value in data set [4] was greater than 2.42 h. Further, in data set [5], the “Peak plasma concentration Cmax” value turned out to be 114 ng/mL, the “Plasma exposure amount AUC” value turned out to be 1017 ng·h/mL, the “Half-life t1/2” value is recorded as 4.91 h and the Peak time tmax amounted to 4.00 h. The “Residence time MRTinf” value in data set [5] is recorded as 7.37 h.

For the origin of these results see EP4837908A1, “NOVEL SODIUM CHANNEL MODULATOR COMPOUND AND USE THEREOF” (dated 2026).
